Ab-95 light chain CDR variants: yeast mating affinities

Reference: Engelhart et al. 2022, doi:10.1038/s41597-022-01779-4. File: FLAb, binding data.

Target: peptide PDVDLGDISGINAS, taken from heptad repeat 2 (HR2) of SARS-CoV-2 spike.

Each scFv is VH, a (GGGGS)3 linker, VL, as in the parent Ab-95, and differs from it in the CDRs of the light chain only.
VH: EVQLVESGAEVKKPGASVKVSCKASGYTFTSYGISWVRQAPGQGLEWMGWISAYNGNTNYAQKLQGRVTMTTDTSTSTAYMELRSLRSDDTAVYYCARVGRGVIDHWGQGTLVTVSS
VL: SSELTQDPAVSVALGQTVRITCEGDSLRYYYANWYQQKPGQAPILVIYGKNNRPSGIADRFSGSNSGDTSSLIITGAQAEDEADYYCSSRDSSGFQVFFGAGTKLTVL

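The starting antibody came from a phage panning campaign against this peptide. Variants in AAYL52 differ from the parent at up to three CDR positions; double and triple changes were sampled at random. The assay is AlphaSeq: two haploid yeast populations carry antibody and antigen on their surface. Mating (16 h, 30 °C) was followed by selection of diploids and sequencing of their barcodes. The ratio of observed to expected reads was calibrated, replicate by replicate, on BCL2-family standards whose Kd was known from biolayer interferometry. Mating was done three times.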

Changes read parent residue, position, new residue, counted from the first residue of the VL shown. Numbers give log10(Kd / nM), so 0 is 1 nM and 3 is 1 µM. Smaller is tighter. "nd" means that the variant was in the library but no mating with the target was seen in that replicate; the authors take this as a sign of poor binding, and no number exists.

| changes | log10 Kd, replicates | empty controls |
|---|---|---|
| L27K Y30D N52I | 2.41 2.63 1.89 | 5/9 (4.12) |
| S26V N51Y R53K | 3.82 nd 4.35 | 3/9 (3.79) |
| R28T Y31E N33S | 2.59 2.38 3.00 | 0/9 |
| Y30G S89N S92P | 1.07 0.89 0.44 | 5/9 (4.23) |
| Y29W S92V G94F | 3.50 nd 3.00 | 1/9 (4.50) |
| Y29M G49I S92G | 5.57 nd 3.05 | 2/9 (4.08) |
| R28Y A32I F98G | 3.42 4.22 3.61 | 5/9 (3.61) |
| L27H R90Y S92C | nd 3.68 nd | 3/9 (3.43) |
| S55G S92H G94K | 3.39 3.00 4.42 | 6/9 (4.07) |
| E23M S92E S93N | 2.64 2.27 1.48 | 0/9 |
| N51C S89E D91Q | 4.28 4.68 nd | 3/9 (3.50) |
| N51C D91C | nd nd nd | 3/9 (3.03) |
| G49M S88L S93V | 3.85 nd nd | 4/9 (4.04) |
| N51Y S55C F95Q | 3.45 4.92 3.16 | 5/9 (3.92) |
| K50T N52G F95Q | 3.47 4.11 nd | 5/9 (4.12) |
| K50W S55K F95M | 3.43 5.84 3.81 | 3/9 (4.03) |
| G24K R28V Y31N | 3.03 3.10 3.48 | 2/9 (4.19) |
| G24L A32K | 2.82 2.75 4.35 | 1/9 (4.89) |
| D91A | 5.16 2.73 2.22 | 3/9 (3.82) |
| E23N R90S F95Q | 3.96 3.68 4.59 | 3/9 (4.36) |
| N51V N52E F98Q | 3.50 3.45 4.03 | 2/9 (4.35) |
| Y29I N51I S88Q | 2.73 nd nd | 2/9 (2.54) |
| R28E S55L D91S | 2.30 2.95 2.43 | 0/9 |
| K50Q R53S V97W | 3.83 nd nd | 1/9 (3.72) |
| L27W Y29R D91R | nd nd 3.54 | 6/9 (3.73) |
| E23Q K50I R90F | nd 3.97 nd | 2/9 (3.58) |
| Y30C P54R R90P | nd 4.03 3.13 | 6/9 (4.03) |
| L27R Q96F V97P | 3.40 2.61 2.97 | 4/9 (4.03) |
| K50V N52T V97Y | 3.96 3.35 nd | 4/9 (3.28) |
| P54Q S88C G94W | 3.18 2.94 4.73 | 3/9 (4.17) |
| D25H F98W | 2.44 2.65 2.26 | 6/9 (4.34) |
| L27V Y29L N51M | 5.11 nd 4.05 | 3/9 (4.05) |
| G94W F95N F98R | nd nd nd | 2/9 (3.82) |
| D25Y S93A V97E | 3.27 2.80 2.35 | 4/9 (3.90) |
| Y30Q S55C Q96K | 0.75 0.75 0.06 | 4/9 (4.08) |
| Y30E N52G G94E | 1.59 1.51 1.23 | 6/9 (3.90) |
| Y29W A32F D91C | 3.19 nd 3.32 | 3/9 (3.91) |
| P54A S55W D91G | 3.07 2.90 2.86 | 5/9 (3.99) |
| R53C D91R G94M | 3.28 nd nd | 1/9 (4.60) |
| D25C N51G | nd 3.10 3.25 | 4/9 (4.21) |

Repeated from above, the 6 best binders with a signal in all replicates:

| changes | log10 Kd, replicates | empty controls |
|---|---|---|
| Y30Q S55C Q96K | 0.75 0.75 0.06 | 4/9 (4.08) |
| Y30G S89N S92P | 1.07 0.89 0.44 | 5/9 (4.23) |
| Y30E N52G G94E | 1.59 1.51 1.23 | 6/9 (3.90) |
| E23M S92E S93N | 2.64 2.27 1.48 | 0/9 |
| L27K Y30D N52I | 2.41 2.63 1.89 | 5/9 (4.12) |
| D25H F98W | 2.44 2.65 2.26 | 6/9 (4.34) |

In this assay the parent's reference entry averaged 2.31; its copy inside this library read 2.25. Nonspecific signal, from three strains lacking the peptide, appeared in 28% of pairings of library AAYL52, centred on 3.91 (5% of these signals below 2.90); values are not corrected for it. For each scFv, signals with the empty controls are counted beside the result, with their mean in brackets.